Laboratory results: ChEMBL document CHEMBL5725838, “Amino pyridine derivatives as phosphatidylinositol 3-kinase inhibitors” (2018)
pIC50: −log10 of the molar value.

By UniProt entry, the sequences of proteins in these tests, tags left out. Where a name states a change or a piece, a line headed by the entry shows the natural chain unless it says otherwise.
UniProt P42338: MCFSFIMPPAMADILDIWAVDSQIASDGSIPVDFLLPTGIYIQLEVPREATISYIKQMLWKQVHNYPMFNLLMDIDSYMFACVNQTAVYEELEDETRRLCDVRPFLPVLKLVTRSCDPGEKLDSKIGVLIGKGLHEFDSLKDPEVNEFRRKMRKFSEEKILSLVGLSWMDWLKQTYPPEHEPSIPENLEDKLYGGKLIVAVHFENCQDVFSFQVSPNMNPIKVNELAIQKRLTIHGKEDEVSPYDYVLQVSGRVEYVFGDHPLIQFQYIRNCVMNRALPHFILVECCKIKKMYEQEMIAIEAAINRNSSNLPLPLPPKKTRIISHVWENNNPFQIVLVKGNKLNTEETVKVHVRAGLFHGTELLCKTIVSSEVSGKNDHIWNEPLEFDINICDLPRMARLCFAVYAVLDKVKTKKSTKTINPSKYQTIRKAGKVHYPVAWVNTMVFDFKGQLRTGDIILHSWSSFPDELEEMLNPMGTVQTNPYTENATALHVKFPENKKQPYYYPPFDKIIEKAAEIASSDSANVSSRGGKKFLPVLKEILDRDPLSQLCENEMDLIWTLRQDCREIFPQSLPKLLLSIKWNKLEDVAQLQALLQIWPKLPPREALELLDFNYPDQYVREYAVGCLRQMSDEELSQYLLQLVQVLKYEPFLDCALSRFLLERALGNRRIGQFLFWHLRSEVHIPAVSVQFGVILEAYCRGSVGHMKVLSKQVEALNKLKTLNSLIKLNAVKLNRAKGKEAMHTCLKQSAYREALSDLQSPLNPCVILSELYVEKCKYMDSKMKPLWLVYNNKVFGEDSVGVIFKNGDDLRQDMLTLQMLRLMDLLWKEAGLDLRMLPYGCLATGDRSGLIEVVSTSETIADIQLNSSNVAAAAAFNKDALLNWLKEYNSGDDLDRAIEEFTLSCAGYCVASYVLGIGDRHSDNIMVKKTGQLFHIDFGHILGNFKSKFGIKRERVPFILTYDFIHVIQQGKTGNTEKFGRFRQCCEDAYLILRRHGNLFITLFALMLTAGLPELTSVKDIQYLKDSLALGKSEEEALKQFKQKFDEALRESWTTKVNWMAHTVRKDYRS

Molecular target: Phosphatidylinositol 4,5-bisphosphate 3-kinase catalytic subunit beta isoform (Homo sapiens, UniProt P42338)

Compound `Cc1cc(-c2cc(-c3cc(S(=O)(=O)NO[C@@H]4CCOC4)ccc3C)cnc2N)on1` has a pIC50 of 6.06.
